Literature values in patent publication US20240226060A1, “TOPICAL LIPOSOME POLYPHENOL COMPOSITIONS FOR TREATING AND PREVENTING VARIOUS SKIN DISORDERS AND METHODS OF PREPARATION THEREOF” (PANAG PHARMA INC., priority 2021, published 2024).

Tests used:
[1] = equal portions
[2] = Mobbili et al

epigallocatechin 3-gallate [EGCG]
solubility ([1]; ethanol/citrate buffer (100 mM, pH 5.0)): 62.8%
solubility ([1]; propylene glycol/citrate buffer (100 mM, pH 5.0)): 44.9%
encapsulation efficiency, maximum ([2]; anionic vesicles in presence of Mg2+): 100% and 98.9%
encapsulation efficiency, maximum ([2]; neutral vesicles in presence of Mg2+): 82.3% and 82.2%

Where “and” joins values, the source holds several entries; their conditions need not be identical. Identical values can stand only once. Like-named read-outs stand apart in the source and are kept apart here.
